These are literature values, as cited in paper PMC11736853.

By Kd is commonly meant the concentration at which binding is half-saturated.

The target of series [1] is FYCO1 peptide 49 (Homo sapiens) (UniProt Q9BQS8). Nature of the series: FP.
The target of series [2] is FYCO1 peptide 51 (Homo sapiens) (UniProt Q9BQS8). Nature of the series: FP.

With LC3B (from UniProt Q9GZQ8), the Kd in series [1] was 290 nM; in series [2], 200 nM.
